One compound from patent US20100190832A1, “Mechanism-based inhibitors of transthyretin amyloidosis: studies with biphenyl ethers and structural templates” (NATIONAL INSTITUTE OF IMMUNOLOGY., priority 2008, published 2010) can be followed below.

The target of one assay is T1, WT-TTR (Homo sapiens, UniProt P02766).
T1 construct: made in house
Kind of assay: Stagnant acid-mediated TTR aggregation (fibril formation) assay, turbidity at 340 nm. Type of assay: biochemical. As for the experimental part:
Stagnant Acid-Mediated TTR Aggregation Assay.
After 1 h, the samples were diluted with 0.5 ml of 200 mM sodium acetate buffer containing 100 mM KCl and 1 mM EDTA. Samples after mild vortexing were incubated at 37° C. for the desired amount of time without stirring to evaluate the efficacy of the inhibitors. The extent of aggregation was probed by turbidity measurements at 340 nm using Tecan GENios microplate reader. […] The extent of TTR fibril formation in the absence of inhibitor was defined to be 100%. […] All experiments were done in triplicate. […] The IC50 was determined by plotting mean of % inhibition vs log and fitted to sigmoid equation:
(§1) The experiments were conducted at 25° C. After 1 h, the samples were diluted with 0.5 mL of 200 mM sodium acetate buffer pH 4.4 containing 100 mM KCl and 1 mM EDTA, vortexed, and incubated at 37° C. for 72 h. […] The stoichiometry of the binding of the inhibitors was determined by HPLC as described by Green et al., N. S. Palaninathan, S, L, Sacchettini, J. e. […] Dissociation constant of binding of these compounds to TTR was determined by fluorescence titration, and data were fitted into the Adair equation for two bind mg.

Another assay concerns the target T2, TTR (Homo sapiens, UniProt P02766).
T2 construct: made in house
The assay is described as follows: Dissociation constant by fluorescence titration (Adair equation, two sites). Type of assay: binding. As for the experimental part: as §1
Small aliquots of 1 mM ligands solutions were successively added to the […] in 100 mM sodium acetate buffer pH 4.4 at […] under constant stirring. After each addition sample was left for 2 min. […] Readings were corrected for buffer blank, dilution and inner filter effect. The inner filter effect was corrected by using the following equation,
From the titration data the dissociation constant was determined by fitting data in following Adair equation for two binding sites-

Where two headings read alike, the source gives them in different places.

Turning to `Oc1cc(Cl)ccc1Oc1ccc(Cl)cc1Cl` [Compound 1, Triclosan, reference compound], the IC50 was determined as 53.5 ± 7.01 µM on WT-TTR (50% reduction in fibril formation, TTR 7.2 μM, pH 4.4, read-out: IC50 ± SE) and 53.5 µM at WT-TTR (Table 3, WT-TTR 7.2 μM, read-out: IC50). Further, the Kd at TTR stood at 0.19 µM; on TTR (pH 4.4, text, read-out: dissociation constant Kd1), 144 µM.
